This test concerns the target Muscarinic acetylcholine receptor M4 (Homo sapiens, UniProt P08173). Nature of the test: Antagonist activity at recombinant human M4 receptor expressed in CHO cells co-expressing Gqi5 by calcium mobilization assay. The test is classed as functional, cell-based.

The chains behind the UniProt entries cited, without tags or fusion partners.
UniProt P08173, whole entry: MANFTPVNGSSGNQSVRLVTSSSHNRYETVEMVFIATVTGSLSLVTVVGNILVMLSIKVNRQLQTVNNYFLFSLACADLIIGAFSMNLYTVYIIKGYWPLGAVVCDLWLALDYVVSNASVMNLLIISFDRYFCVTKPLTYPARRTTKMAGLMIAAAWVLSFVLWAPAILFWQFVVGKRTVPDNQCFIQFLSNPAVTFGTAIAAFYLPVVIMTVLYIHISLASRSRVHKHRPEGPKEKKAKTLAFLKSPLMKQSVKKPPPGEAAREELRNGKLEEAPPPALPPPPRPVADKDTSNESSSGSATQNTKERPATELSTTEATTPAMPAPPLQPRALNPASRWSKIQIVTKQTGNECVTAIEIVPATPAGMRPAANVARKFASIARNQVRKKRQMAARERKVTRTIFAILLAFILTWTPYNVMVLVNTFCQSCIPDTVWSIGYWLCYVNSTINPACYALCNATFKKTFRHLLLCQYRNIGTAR

Molecules are shown by their SMILES.

For `O=C(C1CCN(c2cc(Oc3ccc4ccccc4c3)ncn2)CC1)N1CCc2ccccc2C1`, the IC50 is, setting by setting: (read-out: IC50) 710 nM; (read-out: pIC50 (converted)) 692 nM. Take `O=C(C1CCN(c2cc(Oc3c(F)cccc3F)ncn2)CC1)N1CCc2ccccc2C1`: under “read-out: IC50”, the IC50 stood at 2720 nM.

For the origin of these results see ChEMBL document CHEMBL4017477, “Synthesis and evaluation of 4,6-disubstituted pyrimidines as CNS penetrant pan-muscarinic antagonists with a novel chemotype” (Bioorg Med Chem Lett, 2017).
